# Biological target: Sodium-dependent dopamine transporter (Rattus norvegicus, UniProt P23977)
# By UniProt entry, the sequences of proteins in these tests, tags left out.
# UniProt P23977, whole entry: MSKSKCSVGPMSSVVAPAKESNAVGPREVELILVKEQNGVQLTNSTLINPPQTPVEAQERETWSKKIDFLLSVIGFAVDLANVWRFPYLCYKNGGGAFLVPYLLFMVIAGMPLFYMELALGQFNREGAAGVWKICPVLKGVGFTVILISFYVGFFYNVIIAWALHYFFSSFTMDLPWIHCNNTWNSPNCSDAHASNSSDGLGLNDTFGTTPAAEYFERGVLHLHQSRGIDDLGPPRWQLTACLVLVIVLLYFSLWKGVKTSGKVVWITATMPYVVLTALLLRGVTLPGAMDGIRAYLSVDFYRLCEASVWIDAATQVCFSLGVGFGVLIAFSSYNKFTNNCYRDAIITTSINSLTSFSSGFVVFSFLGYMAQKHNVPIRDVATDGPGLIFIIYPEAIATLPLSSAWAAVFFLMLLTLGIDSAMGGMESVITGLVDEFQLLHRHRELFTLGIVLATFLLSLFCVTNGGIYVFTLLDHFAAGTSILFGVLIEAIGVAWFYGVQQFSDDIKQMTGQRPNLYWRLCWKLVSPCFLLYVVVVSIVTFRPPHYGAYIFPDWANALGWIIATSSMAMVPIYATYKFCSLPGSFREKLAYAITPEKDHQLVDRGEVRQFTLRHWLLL
# Test: Binding affinity was evaluated using [3H]WIN-35428 binding to dopamine transporter (DAT) in rat caudate-putamen
# Type: tissue-based
# Outline: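 Caudate-putamen homogenate from male Sprague-Dawley rats, washed three times, in modified Krebs-HEPES buffer pH 7.4 on ice. Triplicates preincubated 5 min with compound (0.01 nM–100 μM), then 1.5 nM [3H]WIN 35,428 (final) for 1 h on ice.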
smiles,measurement,value
CC1CN(CCCn2c3ccccc3c3ccccc32)CC(C)N1CCCCCCN=C=S (stereo unspecified),IC50,86.7 nM

# — ChEMBL document CHEMBL1130315 (J Med Chem, 1997)
